Columns and labels:
[1] = biological target: T1, chimpanzee PSMA, full length (Pan troglodytes, UniProt Q04609 1-750 (human entry)); assay: FACS, whole cell binding, chimp PSMA HEK; calculated EC50
T1 construct: On transfected HEK293F cells; also called chimp PSMA; H2Q3K5_PANTR
T1 chain: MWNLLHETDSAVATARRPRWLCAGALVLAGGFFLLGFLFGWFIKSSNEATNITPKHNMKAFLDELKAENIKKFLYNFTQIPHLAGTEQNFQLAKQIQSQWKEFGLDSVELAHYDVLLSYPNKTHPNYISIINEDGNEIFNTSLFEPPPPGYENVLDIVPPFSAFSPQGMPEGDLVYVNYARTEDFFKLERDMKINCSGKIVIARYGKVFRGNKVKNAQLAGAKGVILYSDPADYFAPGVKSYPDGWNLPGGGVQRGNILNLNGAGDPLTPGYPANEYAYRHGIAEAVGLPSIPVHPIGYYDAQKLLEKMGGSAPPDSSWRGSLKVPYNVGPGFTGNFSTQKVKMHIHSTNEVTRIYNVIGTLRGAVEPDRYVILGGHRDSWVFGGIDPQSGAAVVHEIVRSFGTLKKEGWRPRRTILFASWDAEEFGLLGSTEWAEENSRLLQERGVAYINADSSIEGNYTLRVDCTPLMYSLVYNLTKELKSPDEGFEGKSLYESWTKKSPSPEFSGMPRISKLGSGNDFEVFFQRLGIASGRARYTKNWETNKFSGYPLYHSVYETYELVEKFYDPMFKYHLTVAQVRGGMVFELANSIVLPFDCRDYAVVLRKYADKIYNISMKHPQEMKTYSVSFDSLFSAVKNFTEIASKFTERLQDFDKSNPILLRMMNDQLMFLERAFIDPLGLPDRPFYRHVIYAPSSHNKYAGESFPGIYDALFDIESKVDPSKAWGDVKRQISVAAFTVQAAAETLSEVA
Experimental: (§1) PSMA×CD3 bispecific antibodies were tested for binding to PSMA positive cell lines LNCAP, human PSMA-HEK, Chimpanzee-PSMA-HEK and Cynomolgous monkey PSMA-HEK. To assess the binding capabilities of the PSMA bispecific antibodies, the cell-binding assay was utilized (described previously). Briefly, PSMA expressing tumor cells are bound by bispecific antibodies at known concentrations and the bound antibody is detected by an anti-human kappa light chain PE conjugated detection reagent (Invitrogen). The Mean Fluorescents Intensity (MFI) is the measure of bound bispecific antibody. The MFI is converted to a relative EC₅₀. EC₅₀ is a commonly used dose-response curve, where the half maximal effective concentration or the EC₅₀ point is defined as the inflection point of the curve. EC₅₀ s were determined by measuring cell bound bispecific and known concentrations. […] The dose response curves were then diluted down to that of background or no bispecific binding. The inflection point of this curve reflects the EC₅₀ point. The calculated EC₅₀ is determined by taking the ug/ml amount of bispecific antibody at the EC₅₀ point and converting it to a molarity value based on the MW of the bispecific antibody. Bispecific antibodies were normalized for protein concentration and then incubated with the same number of cells expressing either human or cyno PSMA. […]

[2] = biological target: T2, recombinant chimpanzee PSMA extracellular domain (ECD) protein (Pan troglodytes, UniProt Q04609 44-750 (human entry)); assay: SPR ProteOn, bsAb captured by anti-Fc
T2 construct: also called Chimp PSMA ECD; PSMG8
T2 chain: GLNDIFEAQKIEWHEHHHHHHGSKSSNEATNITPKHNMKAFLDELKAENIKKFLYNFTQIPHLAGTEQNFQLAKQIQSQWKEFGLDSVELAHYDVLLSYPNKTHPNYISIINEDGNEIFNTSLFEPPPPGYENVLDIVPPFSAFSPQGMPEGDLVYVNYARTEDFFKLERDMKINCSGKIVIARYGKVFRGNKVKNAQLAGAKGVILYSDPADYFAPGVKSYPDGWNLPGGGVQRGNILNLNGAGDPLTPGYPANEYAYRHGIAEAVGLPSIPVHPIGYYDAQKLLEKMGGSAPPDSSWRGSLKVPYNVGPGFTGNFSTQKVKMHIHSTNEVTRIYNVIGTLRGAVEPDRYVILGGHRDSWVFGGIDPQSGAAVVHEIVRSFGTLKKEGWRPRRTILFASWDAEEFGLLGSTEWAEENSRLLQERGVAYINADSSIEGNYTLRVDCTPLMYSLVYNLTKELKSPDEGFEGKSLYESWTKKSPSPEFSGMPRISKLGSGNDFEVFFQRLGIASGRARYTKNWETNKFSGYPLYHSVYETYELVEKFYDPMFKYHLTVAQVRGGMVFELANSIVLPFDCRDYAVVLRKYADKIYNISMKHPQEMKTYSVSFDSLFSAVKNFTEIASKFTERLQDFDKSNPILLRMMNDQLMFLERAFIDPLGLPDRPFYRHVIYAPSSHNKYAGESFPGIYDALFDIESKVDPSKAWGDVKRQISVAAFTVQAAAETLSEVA
Experimental: The interactions of PSMA×CD3 bispecific mAbs with target (recombinant Chimp, PSMA) were studied by Surface Plasmon Resonance (SPR) using a ProteOn XPR36 system (BioRad). […] Approximately 4400 RU (response units) of anti-Human IgG Fc antibodies were immobilized. The kinetic experiments were performed at 25° C. in running buffer (DPBS+0.03% P20+100 μg/ml BSA). To perform kinetic experiments, 100 RU of bispecific antibodies were captured followed by injections of analytes (recombinant Chimp PSMA ECD) at concentrations ranging from 3.7 nM to 300 nM (in a 3-fold serial dilution). The association phase was monitored for 3 minutes at 50 μL/min, then followed by 15 minutes of buffer flow (dissociation phase). The chip surface was regenerated with two 18 second pulses of 100 mM Phosphoric acid (H₃PO₄, Sigma, cat #7961) at 100 μL/min.
The collected data were processed using ProteOn Manager software. First, the data was corrected for background using inter-spots. Then, double reference subtraction of the data was performed by using the buffer injection for analyte injections. The kinetic analysis of the data was performed using a Langmuir 1:1 binding model. The result for each bispecific antibody was reported in the format of kₐ (On-rate), kd (Off-rate) and KD (equilibrium dissociation constant).

[3] = biological target: T1, chimpanzee PSMA, full length; assay: FACS, whole cell binding, chimp PSMA HEK
Experimental: as §1

[4] = biological target: T3, Cynomolgous monkey PSMA, full length (Macaca fascicularis, UniProt Q04609 1-750 (human entry)); assay: FACS, whole cell binding, cyno PSMA HEK
T3 construct: On transfected HEK293F cells; also called cyno PSMA; EHH56646.1
T3 chain: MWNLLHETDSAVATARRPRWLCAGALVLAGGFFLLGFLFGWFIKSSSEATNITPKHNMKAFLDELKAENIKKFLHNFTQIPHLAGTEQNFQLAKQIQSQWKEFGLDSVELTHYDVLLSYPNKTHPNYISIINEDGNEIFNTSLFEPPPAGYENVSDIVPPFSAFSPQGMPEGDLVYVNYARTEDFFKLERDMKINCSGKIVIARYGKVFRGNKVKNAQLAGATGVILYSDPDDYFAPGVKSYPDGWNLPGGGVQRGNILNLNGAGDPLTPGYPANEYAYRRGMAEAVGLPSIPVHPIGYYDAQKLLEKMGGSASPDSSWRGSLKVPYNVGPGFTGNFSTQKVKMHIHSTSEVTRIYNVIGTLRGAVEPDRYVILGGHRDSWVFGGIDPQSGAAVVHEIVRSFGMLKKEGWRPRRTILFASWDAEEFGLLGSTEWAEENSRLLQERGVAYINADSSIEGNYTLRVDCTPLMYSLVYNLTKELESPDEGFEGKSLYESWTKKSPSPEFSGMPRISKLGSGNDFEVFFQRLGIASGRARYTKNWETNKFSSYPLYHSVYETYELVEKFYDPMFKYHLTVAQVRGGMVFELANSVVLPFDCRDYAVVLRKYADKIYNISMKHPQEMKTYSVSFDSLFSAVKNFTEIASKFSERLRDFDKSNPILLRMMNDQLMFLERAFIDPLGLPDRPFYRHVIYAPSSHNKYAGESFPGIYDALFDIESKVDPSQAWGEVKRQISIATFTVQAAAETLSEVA
Experimental: as §1

[5] = biological target: T4, human PSMA (prostate specific membrane antigen), full length (human, UniProt Q04609 1-750); assay: FACS, whole cell binding, LNCaP; calculated EC50
T4 construct: On LNCaP or C4-2B cells (endogenous) or transduced HEK293F cells; also called FOLH1_HUMAN; hPSMA
Experimental: as §1

[6] = biological target: T4, human PSMA (prostate specific membrane …); assay: FACS, whole cell binding, LNCaP
Experimental: as §1

[7] = biological target: T3, Cynomolgous monkey PSMA, full length; assay: FACS, whole cell binding, cyno PSMA HEK; calculated EC50
Experimental: as §1

[8] = biological target: T2, recombinant chimpanzee PSMA …; assay: SPR Biacore 3000, bsAb captured by anti-Fc
Experimental: Binding to recombinant Chimp PSMA by Biacore. The Affinity measurements using Surface Plasmon Resonance (SPR) were performed using a Biacore 3000 optical biosensor (Biacore-GE Healthcare). A biosensor surface was prepared by coupling anti-Human IgG Fc (Jackson ImmunoResearch Laboratory, cat #109-005-098) to the carboxymethylated dextran surface of a CM-5 chip (Biacore, cat # BR-1000-12) using the manufacturer instructions for amine-coupling chemistry. Approximately 16,000 RU (response units) of anti-Human IgG Fc antibodies were immobilized in each of four flow cells. The kinetic experiments were performed at 25° C. in running buffer (DPBS+0.03% P20+[…]). Dilutions of antigen (recombinant Chimp PSMA, concentration either from 1.2-300 nM or 3.7-900 nM in a 3-fold serial dilution) were prepared in running buffer. About 100 RU of PSMA×CD3 bispecific mAbs were captured on flow cell 2 to 4 of the sensor chip. Flow cell 1 was used as reference surface. Capture of PSMA×CD3 bispecific mAb was followed by a 3 or 5-minute injection (association phase) of antigen (recombinant Chimp PSMA) at 50 μl/min, followed by 15 or 20 minutes of buffer flow (dissociation phase). The chip surface was regenerated by two 18-second injections of 100 mM Phosphoric acid (H₃PO₄, Sigma, cat #7961) at 50 μl/min.
The collected data were processed using BIAevaluation software (Biacore). First, double reference subtraction of the data was performed by subtracting the curves generated by buffer injection from the reference-subtracted curves for analyte injections. Then kinetic analysis of the data was performed using a Langmuir 1:1 binding model with global fit. The result for each PSMA×CD3 bispecific mAb was reported in the format of kₐ (On-rate), kd (Off-rate) and KD (Equilibrium dissociation constant).

B1: PS3B21 (bispecific antibody, human IgG4 S228P, kappa, lambda, F234A L235A)
heavy 1: not shown
light 1: not shown
heavy 2: EVQLVESGGGLVQPGGSLRLSCAASGFTFNTYAMNWVRQAPGKGLEWVARIRSKYNNYATYYAASVKGRFTISRDDSKNSLYLQMNSLKTEDTAVYYCARHGNFGNSYVSWFAYWGQGTLVTVSSASTKGPSVFPLAPCSRSTSESTAALGCLVKDYFPEPVTVSWNSGALTSGVHTFPAVLQSSGLYSLSSVVTVPSSSLGTKTYTCNVDHKPSNTKVDKRVESKYGPPCPPCPAPEAAGGPSVFLFPPKPKDTLMISRTPEVTCVVVDVSQEDPEVQFNWYVDGVEVHNAKTKPREEQFNSTYRVVSVLTVLHQDWLNGKEYKCKVSNKGLPSSIEKTISKAKGQPREPQVYTLPPSQEEMTKNQVSLTCLVKGFYPSDIAVEWESNGQPENNYKTTPPVLDSDGSFLLYSKLTVDKSRWQEGNVFSCSVMHEALHNHYTQKSLSLSLGK
light 2: QTVVTQEPSLTVSPGGTVTLTCRSSTGAVTTSNYANWVQQKPGQAPRGLIGGTNKRAPGTPARFSGSLLGGKAALTLSGVQPEDEAEYYCALWYSNLWVFGGGTKLTVLGQPKAAPSVTLFPPSSEELQANKATLVCLISDFYPGAVTVAWKADSSPVKAGVETTTPSKQSNNKYAASSYLSLTPEQWKSHRSYSCQVTHEGSTVEKTVAPTECS
**Q.** What does the source list for B1?
**A.** EC50 [1]: 8.81 nM; Kd [2]: 7.1 nM; koff [2]: 0.000473 s⁻¹; kon [2]: 67000 M⁻¹ s⁻¹; EC50 [3]: 1.25 µg/mL; EC50 [4]: 0.86 µg/mL; EC50 [5]: 5.2 nM; EC50 [6]: 0.737 µg/mL; EC50 [7]: 6.1 nM; Kd [8]: 44.4 nM; koff [8]: 0.000489 s⁻¹; kon [8]: 11000 M⁻¹ s⁻¹
